Data published in publication PMC12336229, “Peptide-mimetics derived from leucyl-tRNA synthetase are potential agents for the therapy of mt-tRNA related diseases” (Frontiers in Pharmacology, 2025).

Experiment: in vivo
Design: species or system C57BL/6 mice
Settings: male, C57BL/6J, mouse, iv, 4.15 ug, In vivo uptake of 64Cu-PMT, SUVmean
Description: Two-month-old male C57BL/6J mice were purchased from ENVIGO RMS S. r.l. (San Pietro al Natisone, Italy). All animals were housed in the San Raffaele Research Institute (Milan) animal facility under constant temperature and humidity, with a 12-h light/dark cycle and access to food and water ad libitum and environmental enrichment. Experimental procedures involving the use of animals complied with the EU Directive 2010/63/EU for animal experiments and have been approved by the Ethical Committees of the San Raffaele Research Institute (Milan) and the Italian Ministry of Health (license n. 717/2021-PR). The study was conducted in compliance with the ARRIVE 2.0 guidelines.
Sixty adult C57BL/6 male mice were initially included in the study. Twenty animals were dedicated to in vivo/ex vivo biodistribution of the radiolabelled PMT ^64Cu-PMT. […]
PET-CT imaging was performed using β-Cube® and γ-Cube® (Molecubes, Gent, NE), respectively, equipped with the mouse Hotel insert hosting up to four mice simultaneously. A group of 5 animals were injected into the caudal vein with the radiopharmaceutical ^64Cu-PMT (mean injected radioactivity of 3.62 ± 1.03 MBq, corresponding to mean injected mass of 4.15 ± 0.53 µg) and subjected to PET-CT acquisition at 1, 3, 24 and 48 h after injection. […] Temperature was maintained constant, and respiratory and cardiac rates were monitored. […]

## CC[C@@H](C)[C@@H](NC(=O)[C@@H](CC(C)C)NC(=O)[C@@H](C)NC(=O)[C@H](NC(=O)[C@@H](CCCNC(=N)N)NC(=O)[C@H]1CCCN1C(=O)[C@@H](CO)NC(=O)[C@@H](CC(C)C)NC(=O)[C@@H](Cc1ccccc1)NC(=O)[C@@H](CO)NC(=O)[C@@H](CCCCN)NC(=O)[C@H](N)CCCCN)[C@H](C)O)C(=O)N[C@H](CC(N)=O)C(=O)N[C@H](Cc1ccccc1)C(=O)N[C@H](CC(C)C)C(=O)N[C@@H](C(=O)N[C@H](CSC1CC(=O)N(CCNC(=O)CN2CCN(CC(=O)O)CCN(CC(=O)O)CC2)C1=O)C(N)=O)C(C)C (stereo partly shown) [^64Cu-PMT, metal not drawn]
  SUV at 48 h: 0.137 ± 0.04 SUV
